This is a selection; strong and weak results do not stand in their true shares. Activity calls are given as the source filed them. No stated cut-off is given here; in the data, active means binding response below about 49% or above about 150%; inactive means in between.

By UniProt entry, the sequences of proteins in these tests, tags left out.
UniProt P09471, whole entry: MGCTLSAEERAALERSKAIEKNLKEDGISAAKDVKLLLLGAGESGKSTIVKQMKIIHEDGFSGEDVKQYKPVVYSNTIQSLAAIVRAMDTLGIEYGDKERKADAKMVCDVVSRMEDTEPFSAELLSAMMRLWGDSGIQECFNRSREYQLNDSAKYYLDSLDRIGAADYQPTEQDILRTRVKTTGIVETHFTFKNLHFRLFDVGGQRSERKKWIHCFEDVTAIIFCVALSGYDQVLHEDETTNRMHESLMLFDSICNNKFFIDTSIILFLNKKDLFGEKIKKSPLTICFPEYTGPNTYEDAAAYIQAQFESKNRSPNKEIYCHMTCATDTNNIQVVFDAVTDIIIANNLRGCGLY

This assay concerns the target Guanine nucleotide-binding protein G(o) subunit alpha (Homo sapiens) (UniProt P09471). Nature of the assay: modulators of RGS4 binding to Galphao, primary screen, biochemical, multiplexed bead flow cytometry (AID 1415).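 Further: fluorescent Galphao activated with aluminum fluoride binding bead-coupled RGS4.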 Particulars: at 10 µM, actives lie on both sides.
Consider `c1ccc(CN2CCC(Nc3ccccc3)CC2)cc1`, for which the binding response (% of control) was inactive: 97.1%.

As to `N#Cc1ccc(C(=O)NCC2(N3CCCCC3)CCCCC2)cc1`, the binding response (% of control) was inactive: 105%.

As to `N/C(=N\O)c1c(N)no[n+]1[O-]`, the binding response (% of control) was inactive: 96.3%.

In the case of `O=C(OC1CN2CCC1CC2)C1c2ccccc2C=Cc2ccccc21` (centres undefined), the binding response (% of control) was inactive: 101%.

Consider `COc1ccc(C(=O)NCC2(N3CCOCC3)CCCCC2)cc1OC`, for which the binding response (% of control) is inactive: 108%.

As for `COc1cc(OC)cc(C(=O)NCC2(N3CCOCC3)CCCCC2)c1`, the binding response (% of control) was inactive: 98.8%.

Turning to `CCC(CO)(C(=O)OC1CN2CCC1CC2)c1ccccc1` (centres undefined), the binding response (% of control) was inactive: 96.8%.

As for `CCCOc1ccc(C)cc1CN(CCCl)CCCl`, the binding response (% of control) was inactive: 92.7%.

Consider `CCOc1ncccc1C(=O)NCC1(N2CCOCC2)CCCCC1`, for which the binding response (% of control) was inactive: 127%.

As for `CC(C)(C)OC(=O)N1CCC(Nc2ccccc2)CC1`, the binding response (% of control) was inactive: 98.5%.

Consider `CCN1CCC(Nc2cccc(F)c2)CC1`, for which the binding response (% of control) is inactive: 103%.

On to `CN(C)c1ccc(C(=O)NCC2(N3CCCCC3)CCCCC2)cc1`, for which the binding response (% of control) was inactive: 95.5%.

With `Fc1ccccc1NC1CCN(Cc2ccccc2)CC1`, the binding response (% of control) is inactive: 98.6%.

Take `Cc1ccc(OCC(C)C)c(CN(CCCl)CCCl)c1`: the binding response (% of control) is inactive: 103%.

In the case of `CCOc1ccc(C)cc1CN(CCCl)CCCl`, the binding response (% of control) was inactive: 102%.

As for `COc1ccc(NC2CCN(CCc3ccccc3)CC2)c(OC)c1`, the binding response (% of control) is inactive: 105%.

For `O=C(NCC1(N2CCOCC2)CCCCC1)c1cc2ccccc2o1`, the binding response (% of control) is inactive: 118%.

In the case of `O=C(OC1CN2CCC1CC2)C1c2ccccc2Oc2ccccc21` (centres undefined), the binding response (% of control) was inactive: 97.5%.

`N#CC1(Nc2ccccc2)CCN(Cc2ccccc2)CC1`: the binding response (% of control) is inactive: 102%.

`CCOC(=O)N1CCC(Nc2ccc(OC)cc2)CC1`: the binding response (% of control) is inactive: 97.9%.

Take `COc1ccc(C(=O)NCC2(N3CCCCC3)CCCCC2)c(OC)c1OC`: the binding response (% of control) was inactive: 105%.

With `CC(C)c1ccc(NC2CCN(C(=O)OC(C)(C)C)CC2)cc1`, the binding response (% of control) is inactive: 102%.

On to `COc1ccc(CN(CCCl)CCCl)cc1Cl`, for which the binding response (% of control) was inactive: 100%.

Consider `CN(C)c1cccc(C(=O)NCC2(N3CCCCC3)CCCCC2)c1`, for which the binding response (% of control) is inactive: 96.8%.

As to `O=C(NCC1(N2CCOCC2)CCCCC1)c1cc(=O)[nH]c2ccccc12`, the binding response (% of control) was inactive: 102%.

For `CN1CCN(CCOC(=O)C(O)(c2ccccc2)c2ccccc2)CC1`, the binding response (% of control) was inactive: 103%.

For `COc1ccc(NC2CCN(C(=O)OC(C)(C)C)CC2)cc1`, the binding response (% of control) was inactive: 98.1%.

Take `N#CC1(Nc2ccccc2)CCN(CCc2ccccc2)CC1`: the binding response (% of control) is inactive: 103%.

Consider `O=C(NCC1(N2CCCCC2)CCCCC1)c1cccc([N+](=O)[O-])c1`, for which the binding response (% of control) was inactive: 101%.

These data come from PubChem BioAssay AID1415 (NMMLSC, 2008).
